Only a part is listed here, and it is no random draw.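 Compound tested at a single concentration for 48 hours in 96-well plates; a percent growth value below 10 was scored as active.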 Calls of active or inactive are those of the source.
How the values were obtained:
Assay in all cases: NCI-60 one-dose screen, 48 h (100 = growth as untreated, 0 = no growth, -100 = all killed)
Conditions in all cases: 10 µM unless noted
NCI-H23 lung = test system: NCI-H23 lung
NCI-H226 lung = test system: NCI-H226 lung
HOP-62 NSCLC = test system: HOP-62 NSCLC
HOP-92 NSCLC = test system: HOP-92 NSCLC
NCI-H522 lung = test system: NCI-H522 lung
A549/ATCC NSCLC = test system: A549/ATCC NSCLC
786-0 renal = test system: 786-0 renal
COLO 205 colon = test system: COLO 205 colon
DU-145 prostate = test system: DU-145 prostate
K-562 leukemia = test system: K-562 leukemia
MALME-3M melanoma = test system: MALME-3M melanoma
MDA-MB-231 breast = test system: MDA-MB-231 breast
RXF 393 renal = test system: RXF 393 renal
SF-268 CNS = test system: SF-268 CNS
SF-295 CNS = test system: SF-295 CNS
SF-539 CNS = test system: SF-539 CNS
UACC-257 melanoma = test system: UACC-257 melanoma
M14 melanoma = test system: M14 melanoma
NCI-H322M lung = test system: NCI-H322M lung
NCI-H460 lung = test system: NCI-H460 lung

Measured: growth

c1cc(-c2nn[nH]n2)ccc1-c1nn[nH]n1
inactive: NCI-H23 lung 104% | NCI-H226 lung 96.8% | HOP-62 NSCLC 100% | HOP-92 NSCLC 87.7% | NCI-H522 lung 97.5% | A549/ATCC NSCLC 96.9% | 786-0 renal 104% | COLO 205 colon 99.3% | DU-145 prostate 115% | K-562 leukemia 115% | MALME-3M melanoma 92% | MDA-MB-231 breast 102% | RXF 393 renal 104% | SF-268 CNS 103% | SF-295 CNS 96.7% | SF-539 CNS 109% | UACC-257 melanoma 92.8% | M14 melanoma 103%

C/C(N)=N/P(=O)(Oc1ccccc1)Oc1ccccc1
inactive: NCI-H23 lung 101% | NCI-H322M lung 100% | HOP-62 NSCLC 100% | NCI-H460 lung 112% | HOP-92 NSCLC 101% | NCI-H522 lung 92.7% | A549/ATCC NSCLC 100% | 786-0 renal 93.2% | COLO 205 colon 105% | DU-145 prostate 107% | K-562 leukemia 95.9% | MALME-3M melanoma 90% | MDA-MB-231 breast 109% | RXF 393 renal 118% | SF-268 CNS 106% | SF-295 CNS 111% | SF-539 CNS 104% | UACC-257 melanoma 95.9% | M14 melanoma 96.3%

CN(CCCl)CC1OC(O)C(O)C(O)C1O (centres undefined)
inactive: NCI-H23 lung 105% | NCI-H226 lung 94.6% | HOP-62 NSCLC 98.6% | NCI-H460 lung 107% | HOP-92 NSCLC 98% | A549/ATCC NSCLC 94.4% | 786-0 renal 101% | COLO 205 colon 110% | DU-145 prostate 108% | K-562 leukemia 102% | MALME-3M melanoma 104% | MDA-MB-231 breast 102% | RXF 393 renal 103% | SF-268 CNS 104% | SF-295 CNS 110% | SF-539 CNS 94% | UACC-257 melanoma 90.4% | M14 melanoma 99.1%

O=[As](O)(O)c1ccc(I)cc1
inactive: NCI-H23 lung 112% | NCI-H226 lung 105% | NCI-H322M lung 102% | HOP-62 NSCLC 100% | NCI-H460 lung 115% | A549/ATCC NSCLC 101% | 786-0 renal 105% | COLO 205 colon 108% | DU-145 prostate 103% | K-562 leukemia 101% | MALME-3M melanoma 112% | MDA-MB-231 breast 110% | RXF 393 renal 103% | SF-268 CNS 108% | SF-295 CNS 105% | SF-539 CNS 103% | UACC-257 melanoma 99.3% | M14 melanoma 106%

O=C(OC1CN2CCC1CC2)c1ccccc1 (centres undefined)
inactive: NCI-H23 lung 105% | NCI-H226 lung 101% | NCI-H460 lung 105% | HOP-92 NSCLC 96.5% | A549/ATCC NSCLC 106% | 786-0 renal 114% | COLO 205 colon 109% | DU-145 prostate 121% | MALME-3M melanoma 120% | MDA-MB-231 breast 100% | RXF 393 renal 110% | SF-268 CNS 104% | SF-295 CNS 89.8% | SF-539 CNS 110% | UACC-257 melanoma 113% | M14 melanoma 111%

N/C(=N/[N+](=O)[O-])N(CCBr)N=O
inactive: NCI-H23 lung 102% | NCI-H226 lung 95.9% | NCI-H322M lung 93.3% | HOP-62 NSCLC 97.7% | NCI-H460 lung 106% | A549/ATCC NSCLC 93% | 786-0 renal 95.1% | COLO 205 colon 99.6% | DU-145 prostate 104% | K-562 leukemia 86.2% | MALME-3M melanoma 102% | MDA-MB-231 breast 109% | RXF 393 renal 109% | SF-268 CNS 95.2% | SF-295 CNS 99.2% | SF-539 CNS 102% | UACC-257 melanoma 96.6% | M14 melanoma 104%

O=P(O)(NCCCO)N(CCCl)CCCl
inactive: NCI-H23 lung 90.5% | NCI-H226 lung 96% | NCI-H322M lung 85.8% | HOP-62 NSCLC 106% | NCI-H460 lung 73.4% | NCI-H522 lung 110% | 786-0 renal 91.7% | COLO 205 colon 94% | DU-145 prostate 118% | K-562 leukemia 109% | MALME-3M melanoma 144% | MDA-MB-231 breast 101% | SF-268 CNS 98% | SF-295 CNS 79.9% | SF-539 CNS 98.7% | M14 melanoma 100%

CCCC1OP(=O)(Nc2ccccc2)OCC1CC (centres undefined)
inactive: NCI-H23 lung 92.8% | NCI-H226 lung 107% | HOP-62 NSCLC 102% | NCI-H460 lung 103% | HOP-92 NSCLC 89.6% | A549/ATCC NSCLC 95.1% | 786-0 renal 106% | COLO 205 colon 104% | DU-145 prostate 106% | K-562 leukemia 107% | MDA-MB-231 breast 100% | RXF 393 renal 122% | SF-268 CNS 98.8% | SF-295 CNS 98.8% | SF-539 CNS 101% | UACC-257 melanoma 101% | M14 melanoma 105%

O=[N+]([O-])c1cc(Oc2ccc([N+](=O)[O-])cc2C(F)(F)F)cc([N+](=O)[O-])c1
inactive: NCI-H23 lung 95% | NCI-H226 lung 106% | NCI-H322M lung 98.7% | NCI-H460 lung 97.1% | HOP-92 NSCLC 139% | NCI-H522 lung 83.2% | A549/ATCC NSCLC 97.1% | 786-0 renal 107% | COLO 205 colon 115% | DU-145 prostate 98.6% | K-562 leukemia 77.4% | MALME-3M melanoma 63.7% | MDA-MB-231 breast 74.1% | RXF 393 renal 111% | SF-268 CNS 93.5% | SF-295 CNS 96.6% | SF-539 CNS 107% | UACC-257 melanoma 98% | M14 melanoma 97.5%

Reference: PubChem BioAssay (NCI)
